# Measured values: PubChem BioAssay (Tox21)
# Chains of the proteins cited; added tags and fusions are not shown.
# UniProt P30968, whole entry: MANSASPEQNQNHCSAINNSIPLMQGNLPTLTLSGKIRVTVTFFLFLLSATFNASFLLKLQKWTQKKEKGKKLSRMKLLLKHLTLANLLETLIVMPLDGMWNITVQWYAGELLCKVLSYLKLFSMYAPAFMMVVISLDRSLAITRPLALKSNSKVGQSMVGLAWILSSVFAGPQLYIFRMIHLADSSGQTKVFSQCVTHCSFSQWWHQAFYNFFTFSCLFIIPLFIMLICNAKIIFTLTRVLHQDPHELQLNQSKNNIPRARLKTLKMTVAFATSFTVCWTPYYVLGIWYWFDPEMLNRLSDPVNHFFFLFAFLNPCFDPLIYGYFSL
# Values joined by “and” are separate entries in the source; they are usually repeats but may differ in a detail not shown here. Equal values may be shown once. The entries are a selection whose mix differs from that of the whole data set. Records with an inconclusive call do not appear. Active and inactive are the calls of the source. Unless noted, the call rests on the fitted dose curve.
# Tests used:
# [1] = Nuclear factor erythroid 2-related factor 2/antioxidant responsive element (Nrf2/ARE) small molecule agonists: qHTS cell viability counter screen in human keratinocytes (AID 1919968; active means well fitted cell-killing curve with a large enough effect in the repeat runs; further: potency means the concentration at half of the fitted maximal effect; nearly all actives have a fitted effect of over 55% in size); details: KeratinoSens HaCaT ARE cells viability, CellTiter-Fluor, 24 h
# Excerpt: U.S. Tox21 Program National Center for Advancing Translational Sciences [NCATS] Division of Preclinical Innovation [DPI] U.S. Environmental Protection Agency [EPA] National Institutes of Environmental Health Sciences [NIEHS] National Toxicology Program [NTP] U.S. Food and Drug Administration [FDA] Tox21 Assay Overview: Oxidative stress has been implicated in the pathogenesis of a variety of diseases ranging from cancer to neurodegeneration. The antioxidant response element (ARE) signaling pathway plays an important role in the amelioration of oxidative stress. The KeratinoSens (Givaudan, Switzerland) is an in vitro test method which quantifies luciferase induction as a measure of activation of Keap1-Nrf2-antioxidationt/electrophile response element (ARE) dependant pathway in HaCaT human keratinocytes stably transfected with a selectable plasmid. […] The activation of the report gene under culture conditions can be detected by ONE-Glo Luciferase Assay System (Promega, Madison, WI). […]
# Tox21 Assay Protocol Summary: HaCaT derived cell line KeratinoSens were dispensed at 1,500 cells/5uL/well in 1536-well white wall/solid bottom plates using a Multidrop Combi (ThermoFisher Scientific, Waltham, MA) dispenser. […] After 1 h incubation at 37 C/5% CO2 the fluorescence intensity was measured using a ViewLux (PerkinElmer, Shelton, CT) plate reader.
# [2] = Nuclear factor erythroid 2-related factor 2/antioxidant responsive element (Nrf2/ARE) small molecule agonists: luciferase reporter gene qHTS assay in human keratinocytes (AID 1919969); details: KeratinoSens HaCaT ARE-luciferase, luminescence, 24 h; further: potency means the concentration at half of the fitted maximal effect; nearly all actives have a fitted effect of over 35% in size
# [3] = biological target: Gonadotropin-releasing hormone receptor (Homo sapiens) (UniProt P30968); assay: Human gonadotropin-releasing hormone receptor (GnRHR) small molecule agonists, calcium flux assay in GnRHR-HEK293 cells (AID 1920063); details: calcium flux fluorescence, agonist mode, stronger effect = higher value; at 57.6 µM (top of the series); further: on the % scale 0 is the no-effect control and ±100 the full control effect; nearly all actives have a fitted effect of over 35% in size
# Excerpt: National Center for Advancing Translational Sciences [NCATS]
# Division of Preclinical Innovation [DPI]
# U.S. Environmental Protection Agency [EPA]
# National Institutes of Environmental Health Sciences [NIEHS]
# National Toxicology Program [NTP]
# U.S. Food and Drug Administration [FDA]
# Gonadotropin-releasing hormone receptor (GnRHR) is a G-protein-coupled receptor (GPCR) and acts (through phospholipase C) to increase intracellular inositol trisphosphate and then release intracellular calcium stores. Cell-based GnRHR-Hek293 calcium influx assay is using HEK293 cells that have been genetically engineered to express the human GnRHR, which activity can be measured by calcium signaling. A compound/drug can activate (agonist) GnRHR that can be monitored by levels of intracellular calcium.
# GnRHR-HEK293 cells developed by Codex Corp contain human GnRHR reporter gene, which was stably integrated into HEK 293 cells. The compound activation can be detected by fluorescence intensity via calcium flux assay. […]
# GnRHR-Hek293 cells were dispensed at 1500cells/4uL/well in 1536-well black wall/clear bottom plates using a multidrop dispenser. […] The fluorescence intensity in the plates was measured using FDSS 7000EX kinetic plate reader with a filter set of Ex/Em=480/540 for 3 min at 1 sec intervals. Each test compound was measured at 15 concentrations and in triplicates.
Compound,Potency [1],Potency [2],activity change [3]
CN(CCCl)CCCl,active: 43.2 µM,active: 24.3 µM and active: 29.8 µM,
CCC(=O)N(c1ccccc1)C1(COC)CCN(CCn2nnn(CC)c2=O)CC1,,,inactive: -2.54%
